Columns and labels:
[1] = Human protein binding free fraction (Assay A, RED plate equilibrium dialysis)
Experimental: Human protein binding protocol: Compound was added to plasma or brain homogenate and incubated at 2 μM at 37° C. in the RED plate (Thermo n° 96009, cut-off 8000 Da) against PBS buffer. After 4 h, aliquots of plasma and buffer side were transferred to a well containing acetonitrile with an internal standard. After protein precipitation, samples were centrifuged and supernatant was injected in LC/MS/MS. Standards were prepared in the same matrix and treated as samples.
A fraction unbound (fuplasma) was determined for each plasma sample as follows: […]

Protein sequences, listed by entry. Tags and fused reporters are not part of them.
UniProt Q12809, whole entry: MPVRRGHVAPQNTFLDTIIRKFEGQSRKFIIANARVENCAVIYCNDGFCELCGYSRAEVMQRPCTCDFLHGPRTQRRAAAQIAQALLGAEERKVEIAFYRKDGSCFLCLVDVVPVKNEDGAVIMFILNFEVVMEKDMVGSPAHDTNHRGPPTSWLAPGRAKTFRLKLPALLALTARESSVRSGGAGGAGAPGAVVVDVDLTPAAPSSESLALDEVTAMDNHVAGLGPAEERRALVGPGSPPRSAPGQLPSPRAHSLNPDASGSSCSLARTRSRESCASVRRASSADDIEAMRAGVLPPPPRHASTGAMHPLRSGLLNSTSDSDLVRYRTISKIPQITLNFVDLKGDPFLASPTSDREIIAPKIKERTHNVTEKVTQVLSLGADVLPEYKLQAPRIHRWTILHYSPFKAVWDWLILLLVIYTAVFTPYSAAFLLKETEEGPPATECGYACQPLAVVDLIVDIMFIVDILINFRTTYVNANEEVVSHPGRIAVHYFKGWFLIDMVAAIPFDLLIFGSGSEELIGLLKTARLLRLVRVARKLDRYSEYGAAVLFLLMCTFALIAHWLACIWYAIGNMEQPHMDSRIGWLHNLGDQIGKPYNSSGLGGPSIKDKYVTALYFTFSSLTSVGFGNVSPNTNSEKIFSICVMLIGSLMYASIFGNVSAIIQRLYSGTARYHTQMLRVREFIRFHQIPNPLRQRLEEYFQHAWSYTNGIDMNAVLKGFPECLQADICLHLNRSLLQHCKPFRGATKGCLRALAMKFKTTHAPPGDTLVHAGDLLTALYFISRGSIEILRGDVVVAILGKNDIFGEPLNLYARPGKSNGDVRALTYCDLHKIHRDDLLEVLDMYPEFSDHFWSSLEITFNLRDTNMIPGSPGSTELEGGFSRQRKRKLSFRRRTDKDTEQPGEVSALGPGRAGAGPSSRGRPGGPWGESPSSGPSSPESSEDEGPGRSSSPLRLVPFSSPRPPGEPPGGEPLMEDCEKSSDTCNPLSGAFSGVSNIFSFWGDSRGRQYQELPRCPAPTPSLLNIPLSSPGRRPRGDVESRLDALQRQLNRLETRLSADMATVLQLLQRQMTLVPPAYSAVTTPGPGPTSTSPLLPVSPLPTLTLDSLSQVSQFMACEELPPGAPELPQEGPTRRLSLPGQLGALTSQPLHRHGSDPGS

[2] = Human Clint, microsomal metabolic stability (Assay B); conditions: pooled liver microsomes 0.5 mg/mL, 0.5 μM compound, NADPH
Experimental: Human Clint protocol: Pooled liver microsomes (Sekisui Xenotech) were diluted at 0.5 mg/mL in 50 mM phosphate buffer, pH 7.4 then pre-incubated with 0.5 μM […] for 7 min at 37° C. The reactions were initiated by adding prewarmed cofactor (0.44 mM NADPH). Aliquots of samples were taken at 0, 5, 10, 20 and 45 min and the reactions stopped by addition of cold acetonitrile containing an internal standard. Samples were centrifuged at 3000 g for 10 min at 4° C. and then supernatants were analyzed by LC/MS/MS for the amount of parent compound remaining.

[3] = target: hERG potassium channel (Homo sapiens, UniProt Q12809); test: hERG q-patch assay (Assay C, Sophion Qube automated electrophysiology); conditions: read-out: Assay C: hERG q-patch inhibition IC50
Experimental: hERG q-patch assay protocol: The potential for test compound to inhibit the hERG potassium channel was determined using the Charles River ChanTest® hERG-HEK stably transfected cell line on the Sophion Qube automated electrophysiology platform. The assay was performed at room temperature and recordings of the hERG tail current from a population of cells were made using multi-hole QChips.

Assay A: Human protein binding free fraction (F %) [1]	SMILES	Assay B: Human Clint (hCl) [2]	IC50 [3] [µM]
+ (+ indicates F % below 0.1%)	Fc1cc2cc(c1)-c1cnn3ccc(nc13)NC[C@@H]1CCCN1CCCO2	+ (+ indicates hCl above 18 ug/min/mg prot)	< 11
+ (+ indicates F % below 0.1%)	Clc1cc2cc(c1)-c1cnn3ccc(nc13)NC[C@@H]1CCCN1CCO2	+ (+ indicates hCl above 18 ug/min/mg prot)	1 to 10

— patent US12630563B2, “Macrocyclic RIP2-kinase inhibitors” (Oncodesign S.A., priority 2020, dated 2026)
